Results: paper PMC3615473 (Nature Communications, 2013)

What was measured:
[1] = biological target: GFP-Top2α-st1 (C-terminal-truncated, 42 amino-acid deletion) stably expressed in HTETOP cells (human, UniProt P11388); experiment: co-IP
[2] = biological target: DNA topoisomerase IIα (Top2α), endogenous (human (endogenous in HeLa; Pol Iβ …, UniProt P11388); experiment: far-Western, overlay or dot blot
[3] = biological target: ^35S-GFP-Top2α-st5 (C-terminal-truncated, 180 amino-acid deletion; in vitro-translated) (human, UniProt P11388, 35S-labelled); experiment: pull-down
[4] = biological target: ^35S-GFP-Top2α WT (in vitro-translated) (human, UniProt P11388, 35S-labelled); experiment: pull-down

Binder	fold decrease of co-immunoprecipitated amount against GFP-Top2α-WT [1] [fold]	binding result [2]	binding result [3]	binding result [4]
RRN3, endogenous (Pol Iβ-specific component) (natural protein, UniProt Q9NYV6 1-651, looked up) MAAPLLHTRLPGDAAASSSAVKKLGASRTGISNMRALENDFFNSPPRKTVRFGGTVTEVLLKYKKGETNDFELLKNQLLDPDIKDDQIINWLLEFRSSIMYLTKDFEQLISIILRLPWLNRSQTVVEEYLAFLGNLVSAQTVFLRPCLSMIASHFVPPRVIIKEGDVDVSDSDDEDDNLPANFDTCHRALQIIARYVPSTPWFLMPILVEKFPFVRKSERTLECYVHNLLRISVYFPTLRHEILELIIEKLLKLDVNASRQGIEDAEETATQTCGGTDSTEGLFNMDEDEETEHETKAGPERLDQMVHPVAERLDILMSLVLSYMKDVCYVDGKVDNGKTKDLYRDLINIFDKLLLPTHASCHVQFFMFYLCSFKLGFAEAFLEHLWKKLQDPSNPAIIRQAAGNYIGSFLARAKFIPLITVKSCLDLLVNWLHIYLNNQDSGTKAFCDVALHGPFYSACQAVFYTFVFRHKQLLSGNLKEGLQYLQSLNFERIVMSQLNPLKICLPSVVNFFAAITNKYQLVFCYTIIERNNRQMLPVIRSTAGGDSVQICTNPLDTFFPFDPCVLKRSKKFIDPIYQVWEDMSAEELQEFKKPMKKDIVEDEDDDFLKGEVPQNDTVIGITPSSFDTHFRSPSSSVGSPPVLYMQPSPL	~6			
^35S-Flag-RRN3 (in vitro-translated, Flag-immunopurified human RRN3) (natural protein, UniProt Q9NYV6 1-651, looked up, 35S-methionine-labelled) MAAPLLHTRLPGDAAASSSAVKKLGASRTGISNMRALENDFFNSPPRKTVRFGGTVTEVLLKYKKGETNDFELLKNQLLDPDIKDDQIINWLLEFRSSIMYLTKDFEQLISIILRLPWLNRSQTVVEEYLAFLGNLVSAQTVFLRPCLSMIASHFVPPRVIIKEGDVDVSDSDDEDDNLPANFDTCHRALQIIARYVPSTPWFLMPILVEKFPFVRKSERTLECYVHNLLRISVYFPTLRHEILELIIEKLLKLDVNASRQGIEDAEETATQTCGGTDSTEGLFNMDEDEETEHETKAGPERLDQMVHPVAERLDILMSLVLSYMKDVCYVDGKVDNGKTKDLYRDLINIFDKLLLPTHASCHVQFFMFYLCSFKLGFAEAFLEHLWKKLQDPSNPAIIRQAAGNYIGSFLARAKFIPLITVKSCLDLLVNWLHIYLNNQDSGTKAFCDVALHGPFYSACQAVFYTFVFRHKQLLSGNLKEGLQYLQSLNFERIVMSQLNPLKICLPSVVNFFAAITNKYQLVFCYTIIERNNRQMLPVIRSTAGGDSVQICTNPLDTFFPFDPCVLKRSKKFIDPIYQVWEDMSAEELQEFKKPMKKDIVEDEDDDFLKGEVPQNDTVIGITPSSFDTHFRSPSSSVGSPPVLYMQPSPL		binds	binds	binds
